Data reported in patent US20180207228A1, “PEPTIDE COMBINATIONS AND USES THEREOF FOR TREATING GRASS ALLERGY” (ALK-Abelló A/S, priority 2015, published 2018).

Key:
Assay type in all cases: cell-based, human
[1] = system: allergen specific T cells; assay: T cell proliferation assay (72 h) on donor derived T cell lines (TCL02/TCL03)
[2] = system: release of IL-5 upon T cell activation; assay: Fluorospot assay, IL-5 release (DK1-TCL01, US1-TCL01); details: head prints TCL-02 DK1; text: 25 TCL-01 DK1 lines
[3] = system: release of IFN-γ upon T cell activation; assay: Fluorospot assay, IFN-γ release (DK1-TCL01, US1-TCL01); details: head prints TCL-02 DK1; 17 TCL-01 DK1 lines

CC(C)C[C@H](NC(=O)[C@@H]1CCCN1C(=O)[C@H](CCC(=O)O)NC(=O)[C@H](Cc1c[nH]c2ccccc12)NC(=O)[C@H](CCC(=O)O)NC(=O)[C@@H](N)CCC(=O)O)C(=O)N[C@H](C(=O)N[C@@H](CCCCN)C(=O)N[C@@H](CCCCN)C(=O)NCC(=O)N[C@@H](CC(N)=O)C(=O)N[C@H](C(=O)N[C@@H](Cc1c[nH]c2ccccc12)C(=O)N[C@@H](CCC(=O)O)C(=O)N[C@H](C(=O)O)C(C)C)C(C)C)[C@@H](C)O [compound 120]
Proliferation % donor coverage (TCL-02 DK1) ([1]; T cell lines TCL-02 DK1, 30 donors, hit criteria SI>=2, CPM>=1000): 37.93% | Proliferation strength (TCL-02 DK1) ([1]; T cell lines TCL-02 DK1, strength of response (average relative magnitude)): 5.00

CSCC[C@H](NC(=O)CNC(=O)[C@H](CCCCN)NC(=O)[C@H](CCC(=O)O)NC(=O)[C@@H](NC(=O)[C@H](CC(C)C)NC(=O)[C@H](Cc1ccccc1)NC(=O)[C@H](CCCNC(=N)N)NC(=O)[C@H](Cc1ccccc1)NC(=O)[C@H](CC(N)=O)NC(=O)[C@H](Cc1ccccc1)NC(=O)[C@@H]1CCCN1C(=O)CNC(=O)[C@H](CCC(N)=O)NC(=O)[C@H](CC(C)C)NC(=O)[C@@H]1CCCN1C(=O)[C@@H](N)CCC(=O)O)[C@@H](C)O)C(=O)N[C@@H](CCCCN)C(=O)N[C@@H](CC(N)=O)C(=O)N[C@H](C(=O)O)C(C)C [compound 29]
IL-5-Fluorospotr % donor coverage (TCL-02 DK1) [2]: 4.00% | IFN-gamma % donor coverage (TCL-02 DK1) [3]: 0.00%
